# UUG fidelity = modulators of yeast start codon fidelity, primary screen, whole organism, S. cerevisiae, single point, plate reader; S. cerevisiae UUG-firefly luciferase reporter, luminescence/redox ratio; activity score, % at 18.7 µM; 0.13% of 350,000 active; AID 602363, 2012;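 active = replicate mean at a twofold rise or more, about +100% in these data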;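 also: firefly luciferase made from a UUG start codon reports start codon fidelity; reporter light over untreated wells divided by growth signal over untreated wells; some hits fall short of that in this replicate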
# PglD inh = blocks C. jejuni PglD acetyltransferase activity; hit rate 0.098% among 360,000; purified PglD enzyme, DTNB colorimetric CoA detection; inhibition, % at 12.5 µM; in the data active = inhibition above about 16%, passing the limit was not always enough; inconclusive = no clear call, values can overlap the other calls
# esBAF inh = inhibitors of esBAF chromatin remodeling in mouse ES cells | reporter increase, % at 12.5 µM | Bmi1-luciferase knock-in reporter, 24 h; 100% = twice the neutral-well signal | hit rate 2% among 350,000; in the data active = activation above about 40%; inconclusive = no clear call, values can overlap the other calls;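 note: 0% = median of the plate's neutral control wells and 100% = double that signal; a rise in the Bmi1 reporter signal indicates esBAF inhibition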
# Wnt bcat act = activates Wnt/beta-catenin signaling in a reporter cell assay; activator, plate reader; activation, % at 9.35 µM; hit rate 1.2% among 300,000; AID 743398; in the data active = activation above about 30%, passing the limit was not always enough; inconclusive = no clear call, values can overlap the other calls;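 note: 0% = neutral control wells and 100% = positive control wells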
# MITF TRPM1 HTS = activators of MITF-driven TRPM1 promoter activity in SK-MEL-5 cells. SK-MEL-5 TRPM1-promoter luciferase, 24 h; % of positive control, neutral wells = 0. activation, % at 12.5 µM. hit rate 0.75% among 300,000. AID 588334;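 active = mean activation of at least 80% with every replicate also reaching 80%; inconclusive = mean reaches 80% but some replicate falls short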;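 note: 0% = neutral control wells and 100% = parthenolide positive control wells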
# miR-122 sensor = inhibitors of miR-122 in Huh7 cells | Huh7 miR-122 Renilla luciferase sensor, 48 h; neutral wells = 0, positive control = 100 | activation (reporter increase), % at 12.5 µM | hit rate 0.3% among 340,000;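 active = mean replicate activation score at least 90 and every replicate individually at or above 90; inconclusive = only one of the two criteria met; inactive = neither criterion met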;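 note: higher luciferase means less miR-122 activity so hits act as miR-122 inhibitors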
# Numbers without * were called inactive; u = inconclusive; x = no result given; [ ] = dose if it differs, or a comment. Rows were chosen to be rich in hits. Some 2.8% of all compounds tested hit in one or more screens of this group.
SMILES | UUG fidelity | PglD inh | esBAF inh | Wnt bcat act | MITF TRPM1 HTS | miR-122 sensor
COc1cc2ccccc2cc1C(=O)N1CCN(C(C)=O)CC1 | -14 | -9 | -7 | -3 | -8 | x
O=C(O)c1ccccc1C(=O)N1CCN(c2cccc(Cl)c2)CC1 | -12 | -3 | 9 | 1 | 0 | -2
CCOc1ccccc1N1CCN(C(=O)c2cc3ccccc3cc2OC)CC1 | 5 | 1 | -9 | -10 | -44 | 130*
CO[C@@H]1CN(C)C(=O)c2cc(NC(=O)Nc3ccccc3F)ccc2OC[C@@H](C)N(Cc2ccccc2C(=O)O)C[C@@H]1C | 1 | 2 | 0 | x | x | x
CN(C)C(=O)C[C@@H]1CC[C@@H](NC(=O)C2CCOCC2)[C@H](CO)O1 | x | -5 | 2 | x | x | x
Cc1ccc(C(=O)Nc2ccc3ccccc3n2)cc1 | -42 | -4 | 6 | 36* | 41 | 1
O=C(Nc1ccc2ncccc2c1)c1ccccc1Br | -23 | 2 | 110* | x | x | -8
O=C(Nc1ccc2ccccc2n1)c1ccccc1Br | -24 | 3 | 52* | 35* | 26 | 9
O=C(CCc1ccccc1)Nc1ccc2ccccc2n1 | x | x | x | 56* | 100* | x
C[C@H]1CN([C@@H](C)CO)C(=O)c2cc(NC(=O)Nc3cccc4ccccc34)ccc2O[C@H]1CN(C)Cc1ccc(C(=O)Nc2ccccc2N)cc1 | -4 | 5 | -10 | x | x | 8[16.7 µM]
CCn1nccc1C(=O)Nc1ccc(Cl)cn1 | -1 | 5 | x | 21 | 46 | 7
COc1ccc(C(=O)Nc2ccc3ccccc3n2)cc1OC | -16 | 1 | 70* | 22 | 53 | -8
CCn1ccc(C(=O)Nc2ccc(Cl)cn2)n1 | -14 | -3 | 48* | 32* | x | x
O=C(Nc1ccc2ccccc2n1)c1ccccc1 | -26 | 3 | 1 | 18 | 29 | 2
COc1ccc(C(=O)Nc2ccc(Cl)cn2)cc1Cl | -21 | -1 | 69* | u | u | -1
Cc1nccn1Cc1cccc2ccccc12 | -12 | 0 | x | 0 | 0 | -2
Cc1nccn1C(c1ccccc1)c1ccccc1 | 4 | 9 | -6 | 35* | -4 | 9
FC(F)(F)c1ccccc1Cc1c(-c2cccc(Cl)c2)nc2ccc(Br)cn12 | -15 | -6 | 42* | 7 | x | -4
COc1ccc(Cc2c(-c3ccc(F)cc3)nc3ccc(Br)cn23)c(C)c1 | -2 | 3 | 57* | 22 | x | 0
COc1ccccc1Cc1c(-c2ccc(F)cc2)nc2ccc(Br)cn12 | -9 | 0 | 35 | 0 | x | 5
COc1ccc(Cc2c(-c3cccc(Cl)c3)nc3ccc(Br)cn23)c(C)c1 | -16 | 5 | 51* | 18 | x | 3
COc1ccc(Cc2c(-c3cccc(Br)c3)nc3ccc(Br)cn23)c(C)c1 | -6 | 3 | 34 | 0 | x | 4
C[C@@H]1CN([C@H](C)CO)C(=O)c2cccc(NC(=O)C3CCOCC3)c2O[C@@H]1CN(C)S(=O)(=O)c1ccccc1 | 6 | 0 | 5 | x | x | 0[16.7 µM]
C[C@H]1CCCCO[C@H](CN(C)S(=O)(=O)c2cn(C)cn2)[C@@H](C)CN([C@@H](C)CO)C(=O)c2cc(NC(=O)CCCN(C)C)ccc2O1 | -26 | 0 | 1 | x | x | -2[16.7 µM]
CC(=O)c1sc2nc(-c3cccs3)ccc2c1N | -25 | -3 | 65* | x | x | 1

# The list goes on:
SMILES | UUG fidelity | PglD inh | esBAF inh | Wnt bcat act | MITF TRPM1 HTS | miR-122 sensor
Cc1ccc(S(=O)(=O)Nc2ccc3c(c2)C(=O)N([C@@H](C)CO)C[C@H](C)[C@@H](CN(C)C(=O)NC2CCCCC2)OCCCC[C@@H](C)O3)cc1 | -1 | 2 | -3 | x | x | 1[16.7 µM]
COc1ccc(C(=O)COC(=O)c2cc(=O)[nH]c3ccccc23)c(OC)c1 | -4 | -3 | x | 26 | 100* | x
O=C(COC(=O)c1cccc(-n2cnnn2)c1)c1ccc(F)cc1 | x | x | x | 0 | 53 | x
COc1ccccc1C(=O)COC(=O)c1cc(=O)[nH]c2ccccc12 | x | x | x | 3 | 11 | 2
COc1ccc(C(=O)COC(=O)c2cccc(-n3cnnn3)c2)c(OC)c1 | -15 | 8 | 56* | 18 | 92* | x
NC(=O)COC(=O)c1cc(=O)[nH]c2ccccc12 | -1 | -3 | -4 | -1 | -6 | -6
Cc1ccc(C(=O)COC(=O)c2cc(=O)[nH]c3ccccc23)cc1C | -9 | -6 | 88* | 7 | 50 | 1
O=C(C[C@@H]1CC[C@@H](NC(=O)c2ccncc2)[C@@H](CO)O1)Nc1ccccc1 | -23 | -2 | 4 | x | x | x
Cc1ccc(S(=O)(=O)Nc2cccc3c2O[C@@H](CN(C)C(=O)NC2CCCCC2)[C@@H](C)CN([C@H](C)CO)C3=O)cc1 | 0 | -1 | -4 | x | x | 1[16.7 µM]
O=C(N[C@H]1CC[C@H](CCNS(=O)(=O)c2ccc(F)cc2)O[C@@H]1CO)C1CCOCC1 | 3 | 5 | 1 | x | x | 0[16.7 µM]
CC(C)(C)c1ccc(C(=O)NC(=S)NCc2ccco2)cc1 | -24 | 3 | 35 | 3 | 25 | 3
COCCNC(=S)NC(=O)c1ccc(C(C)(C)C)cc1 | x | x | 33 | 19 | 87* | 2
Cc1cnc(NC(=O)Cc2c[nH]c3ccccc23)s1 | -13 | 4 | 8 | 7 | 10 | 3
Cc1csc(NC(=O)Cc2c[nH]c3ccccc23)n1 | x | x | 61* | x | 93* | 4
Cc1csc(NC(=O)Cc2c(F)cccc2Cl)n1 | -11 | 3 | 62* | 22 | x | 8
Cc1csc(NC(=O)Cc2ccc(F)cc2)n1 | -1 | 0 | 64* | -1 | 42 | 1
C[C@H](CO)N1C[C@H](C)[C@H](CN(C)Cc2ccc(-c3ccccc3)cc2)OCc2cnnn2CCCC1=O | x | 1 | 5 | x | x | -3[16.7 µM]
C[C@@H]1CN([C@@H](C)CO)C(=O)Cc2cc(NC(=O)CCC(F)(F)F)ccc2O[C@@H]1CN(C)Cc1ccc(C(F)(F)F)cc1 | 2 | 1 | -2 | x | x | -5[16.7 µM]
O=[N+]([O-])c1ccc(CSc2nc3ccccc3[nH]2)cc1 | -1 | 2 | 72* | 21 | u | -2
Fc1ccc(CSc2nc3ccccc3[nH]2)cc1 | -17 | 2 | 33 | x | 104* | -7
c1ccc(CSc2nc3ccccc3[nH]2)cc1 | -16 | 4 | -29 | 68* | 111* | -9
CCCOc1ccc(CSc2nc3ccccc3[nH]2)cc1 | x | x | -1 | x | 30 | -15
N/N=C(/Cc1nc2ccccc2[nH]1)c1ccc([N+](=O)[O-])cc1 | x | x | x | 38* | 25 | x
O=C(N[C@H]1CC[C@@H](CCNS(=O)(=O)Cc2ccccc2)O[C@@H]1CO)c1cnccn1 | x | 17 | 1 | x | x | -2[16.7 µM]
C[C@H](O)C#Cc1cnc2c(c1)C(=O)N([C@H](C)CO)C[C@H](C)[C@H](CN(C)C(=O)Cc1ccncc1)O2 | x | 3 | -3 | x | x | 1[16.7 µM]

# 5 records picked at random from those above:
SMILES | UUG fidelity | PglD inh | esBAF inh | Wnt bcat act | MITF TRPM1 HTS | miR-122 sensor
Cc1csc(NC(=O)Cc2c[nH]c3ccccc23)n1 | x | x | 61* | x | 93* | 4
NC(=O)COC(=O)c1cc(=O)[nH]c2ccccc12 | -1 | -3 | -4 | -1 | -6 | -6
O=[N+]([O-])c1ccc(CSc2nc3ccccc3[nH]2)cc1 | -1 | 2 | 72* | 21 | u | -2
c1ccc(CSc2nc3ccccc3[nH]2)cc1 | -16 | 4 | -29 | 68* | 111* | -9
C[C@H](O)C#Cc1cnc2c(c1)C(=O)N([C@H](C)CO)C[C@H](C)[C@H](CN(C)C(=O)Cc1ccncc1)O2 | x | 3 | -3 | x | x | 1[16.7 µM]

# (listing goes on)
# Letter code: A = UUG fidelity; B = PglD inh; C = esBAF inh; D = Wnt bcat act; E = MITF TRPM1 HTS; F = miR-122 sensor
Molecule: O=C(C1CC1)N1CC[C@@H]2[C@@H](CO)Nc3ccc(C#Cc4ccc(F)cc4)cc3[C@@H]21
  A = 1	B = -4	C = -3	D = x	E = x	F = -3[16.7 µM]

Molecule: Clc1ccccc1CSc1nc2ccncc2[nH]1
  A = -51	B = 0	C = u	D = 39*	E = 67	F = 14

Molecule: O=C(CSCc1nc2ccccc2[nH]1)Nc1ccccc1
  A = -8	B = -4	C = 4	D = x	E = -24	F = 5

Molecule: c1ccc(CSCc2nc3ccccc3[nH]2)cc1
  A = -24	B = 5	C = x	D = x	E = 111*	F = -8
